# Measured melting point values of organic chemicals

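The OPERA project collected these measurements from public sources as training and test data for property models. A listed value is a point estimate from one report or more. How each value was measured is not recorded, so precision varies. A value may pool stereoisomers or salt forms, and the file does not say which form was measured. Some entries may be limits or estimates that an upstream database listed as plain numbers.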

The melting point is given in degrees Celsius.
Cells with "n/a" have no entry in this list.

| SMILES | name | mp (°C) |
|---|---|---|
| C=CCc1ccc(OCC(=O)O)c(OC)c1 | Acetic acid, [2-methoxy-4-(2-propenyl)phenoxy]- | 170 |
| O=C(O)c1ccc(N2C(=O)CCC2=O)cc1 | 4-(2,5-Dioxopyrrolidin-1-yl)benzoic acid | 211 |
| CCOc1ccc(/N=N/c2ccc(-c3ccc(/N=N/c4c(O)ccc5cc(S(=O)(=O)[O-])cc(S(=O)(=O)[O-])c45)c(C)c3)cc2C)cc1.[Na+].[Na+] | C.I. Direct Red 39 | 285 |
| Cc1c(N)cccc1C(N)=O | 3-Amino-2-methylbenzamide | 174 |
| CC(C)(C)c1ccc(OCCCC(=O)O)cc1 | 4-(4-tert-butylphenoxy)butanoic acid | 54 |
| O=c1[nH]nnc2sc3c(c12)CCCC3 | n/a | 186 |
| O=C(O)Cc1cn2ccsc2n1 | Imidazo[2,1-b]thiazol-6-yl-acetic acid | 182 |
| O=C(OCC(COC(=O)c1ccccc1)(COC(=O)c1ccccc1)COC(=O)c1ccccc1)c1ccccc1 | Pentaerythrityl tetrabenzoate | 101.1 |
| CC1CCc2c(sc(N)c2C(N)=O)C1 (configuration not stated) | n/a | 189 |
| N#Cc1cccc(Cn2ccnc2)c1 | 3-[(1H-Imidazol-1-yl)methyl]benzonitrile | 66 |
| CNS(=O)(=O)c1ccc(Cl)c(C(=O)O)c1 | Benzoic acid, 2-chloro-5-[(methylamino)sulfonyl]- | 172 |
| Cc1ccc(NC(=O)CC(=N)NO)cc1 | 3-(Hydroxyamino)-3-imino-N-(4-methylphenyl)propanamide | 169 |
| O=C(O)/C=C/c1ccc2c(c1)CCO2 | (2E)-3-(2,3-Dihydro-5-benzofuranyl)-2-propenoic acid | 176 |
| O=C(Cc1nc2ccccc2[nH]1)C(F)(F)F | 3-(1H-Benzimidazol-2-yl)-1,1,1-trifluoropropan-2-one | 250 |
| Cn1cc(C(=O)NN)c2ccccc21 | 1-methyl-1H-indole-3-carbohydrazide | 139 |
| Cc1nn(-c2ccccc2)c(Oc2ccccc2)c1C=O | 3-methyl-5-phenoxy-1-phenyl-1H-pyrazole-4-carbaldehyde | 93 |
| Cn1c(-c2ccccc2)c[nH]c1=S | 1-methyl-5-phenyl-1H-imidazole-2-thiol | 181 |
| CC(=O)Oc1ccccc1C(=O)OCC(=O)NCC(N)=O | n/a | 186 |
| CCCCCCCCCCOC(=O)C(CC)CCCC (configuration not stated) | Decyl 2-ethylhexanoate | -18 |
| CCOC(=O)Nc1cccc(O)c1 | Carbamic acid, (3-hydroxyphenyl)-, ethyl ester | 96 |
| CCOCCCNC(=O)CC#N | 2-cyano-N-(3-ethoxypropyl)acetamide | 47 |
| Ic1nccn1C(c1ccccc1)(c1ccccc1)c1ccccc1 | 2-Iodo-1-trityl-1H-imidazole | 170.5 |
| CNCC(C)C1CCCCC1.Cl (configuration not stated) | 2-Cyclohexyl-N-methylpropan-1-amine--hydrogen chloride (1/1) | 139 |
| COc1ccc(C(=O)O)cc1S(=O)(=O)Cl | 3-(chlorosulfonyl)-4-methoxybenzoic acid | 154 |
| CC1(C)C[C@H]2[C@H]1CC[C@]1(C)CCC[C@@]2(O)C1 | (+)-Caryolan-1-ol | 95 |
| Cc1ccccc1-n1c(-c2ccncc2)n[nH]c1=S | 5-Pyridin-4-yl-4-o-tolyl-4H-[1,2,4]triazole-3-thiol | 281 |
| S=c1[nH]nc(COc2ccccc2Cl)o1 | 5-[(2-Chlorophenoxy)methyl]-1,3,4-oxadiazole-2(3H)-thione | 136 |
| Cn1c(SCC(=O)O)nc2ccccc21 | [(1-Methyl-1H-benzimidazol-2-yl)sulfanyl]acetic acid | 157 |
| Cn1c(COc2ccc(Cl)cc2)n[nH]c1=S | n/a | 119 |
| NS(=O)(=O)c1ccc2c(c1)CCN2 | indoline-5-sulfonamide | 164 |
| O=C(Nc1ccccc1)C(Cl)c1ccccc1 (configuration not stated) | 2-chloro-N,2-diphenylacetamide | 151 |
| CC(C)NS(=O)(=O)c1ccc(N)cc1 | 4-amino-N-isopropylbenzenesulfonamide | 113 |
| CC(=O)C=C(C)N | 4-Amino-3-penten-2-one | 38.5 |
| Cc1cc(C)c2nc(N)sc2c1 | Benzothiazole, 2-amino-4,6-dimethyl- | 136 |
| COC(=O)c1ccc(C(=O)O)cn1 | 6-(Methoxycarbonyl)nicotinic acid | 211 |
| Cc1cc(C)n(CC(=O)NN)n1 | 2-(3,5-dimethyl-1H-pyrazol-1-yl)acetohydrazide | 103 |

Values as listed in the OPERA 2.9 repository of K. Mansouri.